Measured values from patent US10947229B2, “Dimethyl amino azetidine amides as JAK inhibitors” (THERAVANCE BIOPHARMA R&D IP, LLC, priority 2018, dated 2021).

Amino acid sequences for entries named in this document (tags omitted). A change or cut given only in a name is not applied to a line headed by its entry.
UniProt P52333: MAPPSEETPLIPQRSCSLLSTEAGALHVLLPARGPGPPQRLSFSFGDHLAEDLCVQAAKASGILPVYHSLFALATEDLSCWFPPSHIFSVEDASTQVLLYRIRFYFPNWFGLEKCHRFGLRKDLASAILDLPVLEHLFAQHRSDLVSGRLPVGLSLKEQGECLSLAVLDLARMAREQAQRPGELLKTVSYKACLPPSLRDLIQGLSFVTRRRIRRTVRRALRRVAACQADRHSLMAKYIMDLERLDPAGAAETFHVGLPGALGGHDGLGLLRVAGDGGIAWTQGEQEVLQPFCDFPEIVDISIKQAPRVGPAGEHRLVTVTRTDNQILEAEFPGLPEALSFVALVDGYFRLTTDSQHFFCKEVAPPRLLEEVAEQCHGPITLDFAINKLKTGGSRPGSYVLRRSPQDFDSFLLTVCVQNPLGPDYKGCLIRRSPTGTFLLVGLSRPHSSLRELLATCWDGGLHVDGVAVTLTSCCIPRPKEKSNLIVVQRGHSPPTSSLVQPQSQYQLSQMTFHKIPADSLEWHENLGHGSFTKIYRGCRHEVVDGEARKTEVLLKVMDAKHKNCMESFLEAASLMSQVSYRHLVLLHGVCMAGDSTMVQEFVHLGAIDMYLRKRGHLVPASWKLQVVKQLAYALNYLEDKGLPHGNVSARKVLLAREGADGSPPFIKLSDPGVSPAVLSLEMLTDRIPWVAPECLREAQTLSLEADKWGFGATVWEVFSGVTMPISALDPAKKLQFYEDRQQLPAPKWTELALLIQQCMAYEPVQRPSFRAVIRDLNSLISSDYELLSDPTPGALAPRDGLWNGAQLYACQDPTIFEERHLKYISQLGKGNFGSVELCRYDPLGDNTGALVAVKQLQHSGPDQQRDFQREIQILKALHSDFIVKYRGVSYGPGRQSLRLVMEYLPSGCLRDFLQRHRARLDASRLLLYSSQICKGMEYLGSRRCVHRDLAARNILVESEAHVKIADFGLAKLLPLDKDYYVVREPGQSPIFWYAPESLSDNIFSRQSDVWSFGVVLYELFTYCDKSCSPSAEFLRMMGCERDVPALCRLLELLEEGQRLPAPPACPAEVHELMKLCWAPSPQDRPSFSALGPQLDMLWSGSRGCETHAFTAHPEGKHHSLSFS
UniProt P29597: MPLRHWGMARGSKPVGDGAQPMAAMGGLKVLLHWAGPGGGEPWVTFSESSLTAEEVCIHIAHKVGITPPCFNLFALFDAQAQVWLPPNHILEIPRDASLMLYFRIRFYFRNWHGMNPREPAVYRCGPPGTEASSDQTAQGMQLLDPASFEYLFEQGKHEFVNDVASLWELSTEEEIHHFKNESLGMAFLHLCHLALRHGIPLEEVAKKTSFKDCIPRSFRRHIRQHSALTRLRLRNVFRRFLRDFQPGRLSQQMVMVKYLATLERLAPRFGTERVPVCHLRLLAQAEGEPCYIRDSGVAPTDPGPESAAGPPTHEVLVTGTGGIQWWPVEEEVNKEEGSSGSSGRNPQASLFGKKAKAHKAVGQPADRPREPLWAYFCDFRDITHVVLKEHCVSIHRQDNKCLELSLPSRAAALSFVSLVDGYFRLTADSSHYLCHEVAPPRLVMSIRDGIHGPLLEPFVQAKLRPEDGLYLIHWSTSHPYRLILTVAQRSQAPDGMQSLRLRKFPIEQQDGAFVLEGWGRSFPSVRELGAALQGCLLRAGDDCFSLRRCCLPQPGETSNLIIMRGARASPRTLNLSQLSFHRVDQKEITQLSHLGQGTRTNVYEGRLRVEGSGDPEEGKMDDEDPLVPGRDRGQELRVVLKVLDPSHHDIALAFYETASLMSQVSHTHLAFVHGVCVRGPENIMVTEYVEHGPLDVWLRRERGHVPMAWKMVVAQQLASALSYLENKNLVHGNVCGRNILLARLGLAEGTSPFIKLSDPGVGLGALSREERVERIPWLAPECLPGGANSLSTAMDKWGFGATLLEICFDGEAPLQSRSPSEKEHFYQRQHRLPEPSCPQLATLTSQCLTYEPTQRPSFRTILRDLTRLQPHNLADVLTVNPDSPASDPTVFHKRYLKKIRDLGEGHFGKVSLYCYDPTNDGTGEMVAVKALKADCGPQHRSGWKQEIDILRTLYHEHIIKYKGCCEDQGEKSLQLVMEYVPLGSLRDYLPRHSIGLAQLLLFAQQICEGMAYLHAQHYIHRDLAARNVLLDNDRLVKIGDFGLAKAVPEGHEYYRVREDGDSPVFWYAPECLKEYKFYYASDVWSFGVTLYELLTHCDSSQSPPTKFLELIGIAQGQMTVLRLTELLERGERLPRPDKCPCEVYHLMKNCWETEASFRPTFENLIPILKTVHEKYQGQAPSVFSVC
UniProt P23458: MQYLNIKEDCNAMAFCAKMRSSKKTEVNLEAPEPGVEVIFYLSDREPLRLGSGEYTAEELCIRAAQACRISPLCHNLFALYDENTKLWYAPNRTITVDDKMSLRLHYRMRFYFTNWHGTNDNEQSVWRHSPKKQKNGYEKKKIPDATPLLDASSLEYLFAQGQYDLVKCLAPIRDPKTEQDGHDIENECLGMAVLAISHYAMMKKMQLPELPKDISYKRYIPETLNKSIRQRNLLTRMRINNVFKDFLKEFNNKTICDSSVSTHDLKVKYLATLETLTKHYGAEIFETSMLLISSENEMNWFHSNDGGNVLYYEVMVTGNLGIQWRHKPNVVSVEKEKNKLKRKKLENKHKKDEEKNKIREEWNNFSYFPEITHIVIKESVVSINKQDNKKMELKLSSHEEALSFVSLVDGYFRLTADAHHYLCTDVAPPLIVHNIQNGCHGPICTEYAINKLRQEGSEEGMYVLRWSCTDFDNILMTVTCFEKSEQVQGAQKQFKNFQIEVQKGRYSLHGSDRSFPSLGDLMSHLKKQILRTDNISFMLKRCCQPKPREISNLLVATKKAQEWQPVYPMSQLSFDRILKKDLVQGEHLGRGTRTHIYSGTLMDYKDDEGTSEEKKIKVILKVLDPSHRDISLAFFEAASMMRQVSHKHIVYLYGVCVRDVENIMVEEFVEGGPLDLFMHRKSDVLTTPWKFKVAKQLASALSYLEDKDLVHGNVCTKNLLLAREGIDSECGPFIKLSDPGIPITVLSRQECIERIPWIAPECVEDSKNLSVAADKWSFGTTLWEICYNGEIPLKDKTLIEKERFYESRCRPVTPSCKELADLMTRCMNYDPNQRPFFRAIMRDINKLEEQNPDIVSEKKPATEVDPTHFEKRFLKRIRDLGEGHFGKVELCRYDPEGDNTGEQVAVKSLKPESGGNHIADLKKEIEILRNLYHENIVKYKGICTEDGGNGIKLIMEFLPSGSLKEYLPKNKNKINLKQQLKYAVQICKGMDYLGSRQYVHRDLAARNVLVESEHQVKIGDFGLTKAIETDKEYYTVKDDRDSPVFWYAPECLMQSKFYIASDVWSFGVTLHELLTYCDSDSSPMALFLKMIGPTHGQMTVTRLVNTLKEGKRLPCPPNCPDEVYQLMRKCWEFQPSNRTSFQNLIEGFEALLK

How the values were obtained:
JAK3 = JAK3 (Homo sapiens (Human), UniProt P52333); assay: Biochemical JAK kinase assay (LanthaScreen), JAK3
Method: (§1) Recombinant GST-tagged JAK enzymes and a GFP-tagged STAT1 peptide substrate were obtained from Life Technologies. Serially diluted compounds were pre-incubated with each of the four JAK enzymes and the substrate in white 384-well microplates (Corning) at ambient temperature for 1 h. ATP was subsequently added to initiate the kinase reactions in 10 μL total volume, with 1% DMSO. […] Kinase reactions were allowed to proceed for 1 hour at ambient temperature before a 10 μL preparation of EDTA (10 mM final concentration) and Tb-anti-pSTAT1 ([…]) antibody (Life Technologies, 2 nM final concentration) in TR-FRET dilution buffer (Life Technologies) was added. The plates were allowed to incubate at ambient temperature for 1 h before being read on the EnVision reader (Perkin Elmer). Emission ratio signals (520 nm/495 nm) were recorded and utilized to calculate the percent inhibition values based on DMSO and background controls. For dose-response analysis, percent inhibition data were plotted vs. compound concentrations, and IC50 values were determined from a 4-parameter robust fit model with the Prism software (GraphPad Software). Results were expressed as pIC50 (negative logarithm of IC50) and subsequently converted to pKi (negative logarithm of dissociation constant, Ki) using the Cheng-Prusoff equation.

Tyk2 = Tyk2 (Homo sapiens (Human), UniProt P29597); assay: Biochemical JAK kinase assay (LanthaScreen), Tyk2
Method: as §1, with “equation. […]” for “equation.”

JAK1 = JAK1 (Homo sapiens (Human), UniProt P23458); assay: Biochemical JAK kinase assay (LanthaScreen), JAK1
Method: as §1

Compound	Ki (JAK3; read-out: JAK3 pKi (converted)) [nM]	Ki (Tyk2; read-out: Tyk2 pKi (converted)) [nM]	JAK1 pKi (JAK1)	JAK3 pKi (JAK3)	Tyk2 pKi (Tyk2)
CCc1cc(O)c(F)cc1-c1ccc2c(-c3nc4c([nH]3)CN(C(C)C)[C@H](C(=O)N3CC(C)(N(C)C)C3)C4)n[nH]c2c1 [Compound C-4, (S)-(3-(dimethylamino)-3-methylazetidin-1-yl)(2-(6-(2-ethyl-5-fluoro-4-hydroxyphenyl)-1H-indazol-3-yl)-5-isopropyl-4,5,6,7-tetrahydro-3H-imidazo[4,5-c]pyridin-6-yl)methanone]	0.316	0.398	–	–	–
CCCN1Cc2[nH]c(-c3n[nH]c4cc(-c5cc(F)c(O)cc5CC)ccc34)nc2C[C@H]1C(=O)N1CC(C)(N(C)C)C1 [Compound C-6, (S)-(3-(dimethylamino)-3-methylazetidin-1-yl)(2-(6-(2-ethyl-5-fluoro-4-hydroxyphenyl)-1H-indazol-3-yl)-5-propyl-4,5,6,7-tetrahydro-3H-imidazo[4,5-c]pyridin-6-yl)methanone]	–	–	10.3	10.0	9.3
CCc1cc(O)c(F)cc1-c1ccc2c(-c3nc4c([nH]3)CN(CC)[C@H](C(=O)N3CC(C)(N(C)C)C3)C4)n[nH]c2c1 [Compound C-3, (S)-(3-(dimethylamino)-3-methylazetidin-1-yl)(5-ethyl-2-(6-(2-ethyl-5-fluoro-4-hydroxyphenyl)-1H-indazol-3-yl)-4,5,6,7-tetrahydro-3H-imidazo[4,5-c]pyridin-6-yl)methanone]	–	–	10.3	9.7	–
CCc1cc(O)c(F)cc1-c1ccc2c(-c3nc4c([nH]3)CN(CC)[C@H](C(=O)N3CC(N(C)C)C3)C4)n[nH]c2c1 [Compound C-2, (S)-(3-(dimethylamino)azetidin-1-yl)(5-ethyl-2-(6-(2-ethyl-5-fluoro-4-hydroxyphenyl)-1H-indazol-3-yl)-4,5,6,7-tetrahydro-3H-imidazo[4,5-c]pyridin-6-yl)methanone]	–	–	10.2	–	–
